In patent US8546386B2, “Corrosion and microbial control in hydrocarbonaceous compositions” (Dow Global Technologies LLC, priority 2008, dated 2013):

Key:
[1] = system: Yarrowia tropicalis ATCC#48138; test: Microbial testing in biodiesel fuel, plate count; format: cell-based; conditions: no biocide
[2] = system: Hormoconis resinae ATCC#20495; test: Microbial testing in biodiesel fuel, plate count; format: cell-based; conditions: no biocide

OCCN(CCO)CCO
Yeast (Y. tropcalis) count ([1]; additive 500 ppm, Week 1): 8.80E+03 Yeast/ml
Yeast (Y. tropcalis) count ([1]; additive 500 ppm, Week 2): 6.00E+03 Yeast/ml
Yeast (Y. tropcalis) count ([1]; additive 500 ppm, Week 3): 2.00E+04 Yeast/ml
Yeast (Y. tropcalis) count ([1]; additive 500 ppm, Week 4): 4.20E+04 Yeast/ml
Yeast (Y. tropcalis) count ([1]; additive 1500 ppm, Week 1): <1.0E2 Yeast/ml
Yeast (Y. tropcalis) count ([1]; additive 1500 ppm, Week 2): <1.0E2 Yeast/ml
Yeast (Y. tropcalis) count ([1]; additive 1500 ppm, Week 3): <1.0E2 Yeast/ml
Mold (H. resinae) count ([2]; additive 500 ppm, Week 1): 2.30E+04 Mold/ml
Mold (H. resinae) count ([2]; additive 500 ppm, Week 2): 1.20E+05 Mold/ml
Mold (H. resinae) count ([2]; additive 500 ppm, Week 3): 1.70E+06 Mold/ml
Mold (H. resinae) count ([2]; additive 1500 ppm, Week 2): 2.30E+02 Mold/ml
Mold (H. resinae) count ([2]; additive 1500 ppm, Week 3): 4.20E+03 Mold/ml
Mold (H. resinae) count ([2]; additive 1500 ppm, Week 4): 5.60E+02 Mold/ml
